Test results reported in US20250332139A1, “PS[…] AND THEIR USE FOR TREATING […] AND NE[…] DISORDERS” (Transcend Therapeutics, Inc., priority 2021, published 2025).

System: 168 GPCRs
Experiment: β-arrestin GPCR screen (PathHunter/GPCRmax), agonist mode
Assay type: cell-based
Settings: 1 and 10 μM, threshold >30% activity

## CNC(C)C(=O)c1ccc2c(c1)OCO2 (centres unmarked) [methylone, 3,4-methylenedioxy-N-methylcathinone]
  agonist activity at 168 GPCRs: did not meet criteria for agonist or antagonist activity
Listed as Methylone
  agonist activity at 168 GPCRs: no significant agonist activity detected
